Laboratory results reported in patent publication US20180220653A1, “Methods for Identifying Compounds that Directly Bind to Insect Transient Receptor Potential Channels” (priority 2015, published 2018).

Experiments:
Nan-Iav complexes [1] = target: T1, Nan-Iav complexes (Drosophila melanogaster, UniProt M9PI57+Q9W3W0); conditions: for displacement of [3H]-Afidopyropen from the high affinity sites / Ki: 0.05 nM [3H]-Afidopyropen; for Ki: read-out: Ki, displacement assay, high affinity sites, FIG. 9A
T1 sequence (M9PI57 1-834): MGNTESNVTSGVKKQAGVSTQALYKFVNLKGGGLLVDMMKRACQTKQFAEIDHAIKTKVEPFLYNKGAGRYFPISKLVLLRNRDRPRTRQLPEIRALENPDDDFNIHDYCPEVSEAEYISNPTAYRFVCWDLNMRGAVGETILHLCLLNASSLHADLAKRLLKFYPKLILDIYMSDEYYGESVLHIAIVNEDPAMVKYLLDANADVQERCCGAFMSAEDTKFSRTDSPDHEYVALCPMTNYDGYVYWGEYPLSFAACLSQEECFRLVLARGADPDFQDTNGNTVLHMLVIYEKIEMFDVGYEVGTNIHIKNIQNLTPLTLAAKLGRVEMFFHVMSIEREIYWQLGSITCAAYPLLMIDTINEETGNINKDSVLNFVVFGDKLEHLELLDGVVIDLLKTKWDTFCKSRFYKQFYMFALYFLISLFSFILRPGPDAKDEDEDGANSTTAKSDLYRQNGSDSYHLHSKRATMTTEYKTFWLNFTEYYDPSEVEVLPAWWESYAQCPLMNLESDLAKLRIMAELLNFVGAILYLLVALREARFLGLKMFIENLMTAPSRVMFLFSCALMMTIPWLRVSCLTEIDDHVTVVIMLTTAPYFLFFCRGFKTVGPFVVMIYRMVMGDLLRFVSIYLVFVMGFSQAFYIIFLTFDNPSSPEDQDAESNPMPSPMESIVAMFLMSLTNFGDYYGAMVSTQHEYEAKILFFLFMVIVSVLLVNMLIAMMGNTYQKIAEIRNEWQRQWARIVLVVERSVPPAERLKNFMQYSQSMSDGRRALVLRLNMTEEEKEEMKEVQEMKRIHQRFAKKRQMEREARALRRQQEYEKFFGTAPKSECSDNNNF
T1 sequence (Q9W3W0 1-1123): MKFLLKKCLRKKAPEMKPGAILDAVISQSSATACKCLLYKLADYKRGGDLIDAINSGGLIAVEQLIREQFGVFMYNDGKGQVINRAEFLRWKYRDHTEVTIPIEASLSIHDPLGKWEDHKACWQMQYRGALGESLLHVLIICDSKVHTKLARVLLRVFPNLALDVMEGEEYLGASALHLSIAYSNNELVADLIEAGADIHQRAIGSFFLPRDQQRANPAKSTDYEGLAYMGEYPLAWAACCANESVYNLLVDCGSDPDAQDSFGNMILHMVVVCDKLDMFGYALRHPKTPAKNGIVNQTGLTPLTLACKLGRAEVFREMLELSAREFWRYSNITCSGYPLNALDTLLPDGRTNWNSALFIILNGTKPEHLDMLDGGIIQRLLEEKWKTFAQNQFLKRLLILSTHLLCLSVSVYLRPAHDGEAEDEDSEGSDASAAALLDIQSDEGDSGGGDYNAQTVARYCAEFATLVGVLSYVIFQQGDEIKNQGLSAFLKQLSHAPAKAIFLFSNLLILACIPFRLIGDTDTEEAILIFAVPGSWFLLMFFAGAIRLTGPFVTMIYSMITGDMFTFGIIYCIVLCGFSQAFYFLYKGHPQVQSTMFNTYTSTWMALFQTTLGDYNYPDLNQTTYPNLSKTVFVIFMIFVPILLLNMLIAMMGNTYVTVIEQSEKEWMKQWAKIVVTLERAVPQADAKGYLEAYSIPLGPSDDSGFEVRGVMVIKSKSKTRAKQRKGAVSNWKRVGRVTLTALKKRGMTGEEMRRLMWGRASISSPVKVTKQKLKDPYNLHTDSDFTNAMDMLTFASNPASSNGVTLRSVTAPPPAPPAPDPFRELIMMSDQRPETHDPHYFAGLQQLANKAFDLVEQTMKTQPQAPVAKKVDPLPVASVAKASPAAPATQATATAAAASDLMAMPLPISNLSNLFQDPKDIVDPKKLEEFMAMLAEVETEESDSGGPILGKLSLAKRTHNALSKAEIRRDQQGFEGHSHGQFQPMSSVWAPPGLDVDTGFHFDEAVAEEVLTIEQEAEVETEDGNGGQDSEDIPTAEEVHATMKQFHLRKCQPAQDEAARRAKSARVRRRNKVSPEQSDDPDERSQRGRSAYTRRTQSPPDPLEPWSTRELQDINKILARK

Nan-Iav complexes [2] = target: T1, Nan-Iav complexes; assay: biochemical
[3] = displacement of [3H]-Afidopyropen from high affinity sites

| Compound | displacement of [3H]-Afidopyropen from the high affinity sites (Nan-Iav complexes [1]) | Hill values (Nan-Iav complexes [1]; [3]) | Ki (Nan-Iav complexes [1]) [nM] | Ki (Nan-Iav complexes [2]) [nM] | Hill values (Nan-Iav complexes [1]) |
| --- | --- | --- | --- | --- | --- |
| C[C@]1(COC(=O)C2CC2)[C@@H]2C[C@H](O)[C@@]3(C)Oc4cc(-c5cccnc5)oc(=O)c4[C@H](O)[C@@H]3[C@@]2(C)CC[C@@H]1OC(=O)C1CC1 [afidopyropen] | completely displaced | ≈ −1 | 0.06 | – | – |
| O=C1Nc2ccc(C(F)(C(F)(F)F)C(F)(F)F)cc2CN1NCc1cccnc1 [N-deacetylated pyrifluquinazon] | completely displaced | ≈ −1 | 9 | – | – |
| CC1=NNC(=O)N(/N=C/c2cccnc2)C1 [pymetrozine] | completely displaced | – | – | 50 | ≈ −1 |

Read-outs that look alike come from different tables or passages of the source.
